Sequences of proteins named here, by UniProt entry; tags and fusion partners are left off. Residues count along the entry.
UniProt Q16620, 32-430 limits assumed: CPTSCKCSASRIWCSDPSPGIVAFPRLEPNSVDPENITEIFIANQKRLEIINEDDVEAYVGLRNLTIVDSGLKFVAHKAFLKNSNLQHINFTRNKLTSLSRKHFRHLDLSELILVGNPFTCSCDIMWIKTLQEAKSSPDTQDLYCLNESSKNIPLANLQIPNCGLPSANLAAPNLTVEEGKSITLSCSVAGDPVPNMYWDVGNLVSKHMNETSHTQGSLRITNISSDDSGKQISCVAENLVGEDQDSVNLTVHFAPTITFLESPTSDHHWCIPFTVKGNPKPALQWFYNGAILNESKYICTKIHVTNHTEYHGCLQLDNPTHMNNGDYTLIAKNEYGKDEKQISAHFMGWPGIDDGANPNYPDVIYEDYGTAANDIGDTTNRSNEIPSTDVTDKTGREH
UniProt Q63604, 32-821 limits assumed: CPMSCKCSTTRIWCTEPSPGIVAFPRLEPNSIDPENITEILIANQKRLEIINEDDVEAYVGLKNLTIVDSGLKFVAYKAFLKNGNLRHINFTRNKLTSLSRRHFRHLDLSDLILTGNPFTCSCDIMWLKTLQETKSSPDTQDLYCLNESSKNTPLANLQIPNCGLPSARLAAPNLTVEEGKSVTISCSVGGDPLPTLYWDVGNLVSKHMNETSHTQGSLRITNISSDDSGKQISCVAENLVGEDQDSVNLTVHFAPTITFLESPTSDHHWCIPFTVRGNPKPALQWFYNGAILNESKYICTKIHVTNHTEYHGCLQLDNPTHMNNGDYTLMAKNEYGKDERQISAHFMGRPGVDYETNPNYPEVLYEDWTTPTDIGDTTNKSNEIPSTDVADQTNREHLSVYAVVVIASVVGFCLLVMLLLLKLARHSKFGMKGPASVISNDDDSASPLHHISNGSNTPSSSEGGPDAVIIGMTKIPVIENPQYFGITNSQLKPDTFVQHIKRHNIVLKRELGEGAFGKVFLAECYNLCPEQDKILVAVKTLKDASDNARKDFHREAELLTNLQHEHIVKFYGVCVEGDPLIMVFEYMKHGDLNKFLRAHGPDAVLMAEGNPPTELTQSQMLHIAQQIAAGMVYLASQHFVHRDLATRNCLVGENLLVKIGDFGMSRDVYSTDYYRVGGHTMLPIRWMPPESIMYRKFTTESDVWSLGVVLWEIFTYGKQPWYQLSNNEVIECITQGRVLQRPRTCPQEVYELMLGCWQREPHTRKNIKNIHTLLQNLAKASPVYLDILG

In paper PMC8398766, “Do Small Molecules Activate the TrkB Receptor in the Same Manner as BDNF? Limitations of Published TrkB Low Molecular Agonists and Screening for Novel TrkB Orthosteric Agonists” (Pharmaceuticals, 2021):

Tests used:
[1] = Metabolic stability in human liver microsomes
Method: (§1) First-phase metabolic stability was investigated in vitro using human (HLM) and mouse (MLM) liver microsomes (Gibco, Thermo Fisher Scientific) as described in Gunerka et al., 2020, with some modifications. Verapamil and warfarin were used as high and low clearance reference compounds, respectively. Test compounds (1 μM) were incubated in the dark at 37 °C with mixing (500 rpm) in 100 mM potassium phosphate buffer containing microsomes (0.5 mg/mL), NADPH (1–1.2 mM), and MgCl2 (3.3 mM). NADPH, a cofactor for CYP family enzymes, was prepared prior to the experiment by reducing NADP with G6P dehydrogenase (Merck, Darmstadt, Germany) (13.2 mM G6P, 5.2 mM NADP, 3.2 U/mL G6P dehydrogenase, 25 min at 30 °C, 500 rpm). The negative control contained buffer instead of NADPH solution. Samples were collected at 0, 10, 20, and 40 min or 0 and 40 min for the negative controls. The reaction was stopped by protein precipitation in 4 volumes of ice cold MeOH containing 100 nM imipramine as an internal standard. […] The compounds’ disappearance from the reactions was measured using the LC-MS system as described for Caco-2 permeability. The elimination rate constant (k) was calculated as a module slope of a log-linear regression of substrate concentration vs. time. Then, the intrinsic clearance (Clint) was calculated as k per microsomal protein content (d = 0.5 mgprotein/mL).

Caco-2 monolayer = assay: Caco-2 passive permeability; details: 2 h
Method: Passive permeability was investigated in 24-well-plate format using differentiated Caco-2 cells (CacoReady 24 well, ReadyCell, Barcelona, Spain), according to a previously published protocol with proprietary modifications and with restrictions described in the product manual. Bidirectional (apical-to-basal and basal-to-apical, AB, and BA) passive permeability was assessed in HBSS buffer containing calcium, magnesium, 5 mM glucose, and a modified transporter inhibitor cocktail (final concentrations of 5 μM elacridar and 20 μM cyclosporine A). Samples were collected at time 0 (from the donor compartment) and after 2 h (from the donor and the acceptor compartments) and diluted with the assay buffer (donor samples) and MeOH (all samples) containing internal standard (100 nM imipramine), followed by a brief centrifugation to remove any buffer precipitates prior to LC-MS analysis. Compounds’ contents in the samples were measured using a UHPLC system (Vanquish Flex, Thermo Fisher Scientific) coupled to a Triple Quad MS detector (QTRAP 5500+, Sciex, Framingham, MA, USA) in multiple reaction monitoring (MRM) mode. Conditions of gradient LC separation were adjusted individually to each compound. Passive permeability (Papp) was then calculated according to the product manual. Atenolol and diclofenac were used as low and high permeability reference compounds, respectively. […]

exTrkB = exTrkB (Homo sapiens, UniProt Q16620); assay: MST binding affinity (Kd) determination; details: non-binding compounds given as 0
Method: The gene encoding the extracellular domain of the human TrkB receptor (exTrkB), residues 1−430, was cloned into the pCMV2 expression vector. Protein expression was performed in suspension-cultivated mammalian ExpiCHO-S cells using the ExpiFectamine (Thermo Scientific, Thermo Fisher Scientific, Waltham, MA, USA) transfection reagent. The secreted protein was purified using a four-step protocol. Clarified culture medium was precipitated with ammonium sulfate added to a final concentration of 1.5 M and centrifuged (235,000× g, 60 min at 4 °C). The supernatant after centrifugation was applied on a HiTrap Phenyl column (GE Healthcare, Chicago, IL, USA) equilibrated with buffer A (25 mM Tris, 1 mM DTT; pH 7.5) with 1.5 M ammonium sulfate. Bound proteins were eluted with a linear gradient of buffer A. The eluted proteins were dialyzed overnight in buffer A and loaded on a CaptoQ ImpRes column (GE Healthcare) equilibrated with buffer A with 50 mM NaCl. The bound proteins were eluted with a linear gradient of buffer A with 1 M NaCl. The fractions containing exTrkB protein were pooled, and MnCl2 and CaCl2 (1mM final concentration each) were added. […] The protein concentration was determined from the absorption at 280 nm using an UV NanoDrop 1000 spectrophotometer (Thermo Scientific).
The exTrkB was labeled with a Monolith Protein Labeling Kit RED-NHS 2nd Generation (NanoTemper Technologies GmbH, Munich, Germany) according to the manufacturer’s protocol. The labelling efficiency was always determined spectrophotometrically with NanoPhotometer® NP80 (Impel) in line with the manufacturer’s recommendations. […]
For primary screening (single-point MST experiments for signal amplitude determination), each of the 987 screened compounds were diluted in MST buffer + 0.1% Tween20 to a final concentration of 0.5 mM. […] The experiments were performed using nano-blue excitation, LED light adjusted to 20% excitation power, and MST power set to medium, and the fluorescence signal during thermophoresis was detected after 30 s. […]

[2] = Metabolic stability in mouse liver microsomes
Method: as §1

TrkB receptor = TrkB receptor (Rattus norvegicus, UniProt Q63604); assay: ELFI TrkB phosphorylation, orthosteric agonist mode, SN56 T48 cell line; details: 0.125–100 μM, 15 min
[3] = Chemical stability pH 7.4; details: pH = 7.4, 4 h
PAMPA = details: 10 μM, 4 h
Method: An artificial membrane was prepared in 96-well filter plates (Millipore MultiScreen IP Filter Plate). Each well of the donor plate was coated with 5 μL of the 2% lecithin/dodecane solution. Next, in each well of the donor plate, 150 μL of a compound-containing donor solution (compound dissolved in 5% DMSO, PBS) was added. All the compounds were added at a concentration of 10 μM. The compounds were prepared from 10 mM stock solutions in DMSO. The 300 μL of buffer (5% DMSO in PBS, pH 7.4) was transferred to each well of the PTFE acceptor plate in technical triplicates. The compound-filled donor plate was placed into the acceptor plate. Incubation was carried out for 4 h at room temperature.
Samples were taken after incubation from donor and acceptor compartments, diluted with 2 volumes of acetonitrile containing a 200 nM concentration of the internal standard (imipramine). The solutions from the donor plate were diluted if necessary. Testosterone (10 μM) and atenolol (10 μM) were used as high and low reference permeability compounds, respectively.
The compound concentration was determined by LC-MS/MS (an Agilent 6460 MS/MS mass spectrometer equipped with Agilent Infinity II 1290 UHPLC, Agilent Technologies). A calibration curve was prepared to quantify the contents of the compound in the test solution.

Cc1ccc(C(=O)C2=C(O)C(=O)N(c3cc(C)on3)C2c2ccncc2)cc1 (stereo not shown)
Clint HLM ([1]; 1 μM, phase I): 10 μL·min^−1·mgprotein^−1
Metabolic stability in HLM (classification) ([1]; compared with verapamil): very good metabolic stability
Papp,AB (Caco-2 monolayer; Caco-2, apical to basal): 0.61 10^−6·cm/s
Papp,BA (Caco-2 monolayer; Caco-2, basal to apical): 10.86 10^−6·cm/s
pKd (exTrkB): 5.63
Clint MLM ([2]; 1 μM, phase I): 3.3 μL·min^−1·mgprotein^−1
Metabolic stability in MLM (classification) ([2]; compared with verapamil): very good metabolic stability
Orthosteric activity (induction of TrkB phosphorylation) (TrkB receptor): did not observe any orthosteric activity
Chemical Stability [% of Degradation] [3]: Stable
PAMPA (PAMPA): 0.03 10^−6·cm/s

pKd: −log10 of the molar value.
